{"source": "patent US20050026219A1", "about": "“Process for label-free measurement of modified substrate” (Boehringer Ingelheim Pharma GmbH & Co. KG, priority 2001, published 2005)", "molecular_target": "EGF-receptor kinase (EGF-RK) (Homo sapiens, UniProt P00533)", "settings": "PGT 10 μg/50 μl, EGF-RK 1 Unit/50 μl, EGF-RK buffer with Brij 35", "method": "The quantity depends mainly on the volumes which are still to be pipetted, the buffer being intended to make the volume of the phosphorylation assay up to the total of 100 μl.\nThen 10 μl of 10% (v/v) DMSO solution are added, or if a substance is to be tested for possible enzyme-modulating properties, 10 μl of a test substance, i.e. a possible inhibitor or activator, dissolved in 10% (v/v) of DMSO, are pipetted in.\nIf an enzymatic reaction is to take place, the enzyme is added at this stage.\nThen the substrate is added. The amounts of the substrates Poly-(Glu, Tyr) 4:1, (SEQ ID NO.:2) M-2165 and (SEQ ID NO.:3) Raytide™ EL used are specified in each case.\nThe reaction of phosphorylation is started here by the addition of 10 μl of the 1 mM ATP solution.\nThe incubation time is 30 minutes at +30° C., for example.\nAfter the end of the incubation period, 20 μl of antibody solution (1.6.) are pipetted in, for example. The receptor, in this case the antibody, is used in excess. The amount which corresponds to an excess can very easily be determined by anyone skilled in the art by means of experiments on binding to a sensor surface to which a substance with a receptor binding site is coupled, with increasing amounts of receptor. In the case of reactions of phosphorylation, increasing amounts of receptor are used with a constant amount of substrate and kinase.\nThe incubation time with the antibody may be, for example, 30 minutes at ambient temperature.\nAfter the end of the incubation period 50 μl of incubation mixture are taken and pipetted into the prepared measuring cell with the sensor to whose surface is coupled a substance with a receptor binding site.\nThe layer thickness of the sensor is measured, for example, by Reflectometric Interference Spectroscopy (RIfS) using a SPEKOL 1100 simultaneous spectral photometer made by Messrs Zeiss Jena, modified according to Schmitt et al. 1997.\nThe receptor (in this case the antibody) is used in excess, so that even if there is a total enzymatic reaction (in this case phosphorylation) of the substrate at least a slight binding signal will still be obtained by the binding of the receptor (antibody) to the sensor surface.\nThe reaction of phosphorylation is started by the addition of ATP.\nAt the start of the experiment a control and a complete phosphorylation without the addition of inhibitor are carried out.", "note": "Read-outs that look alike come from different tables or passages of the source.", "data": [{"substance": "Tyrphostin 47", "values": [{"measurement": "Optical layer thickness", "setting": "10^-4M inhibitor", "result": 2.344, "unit": "nm"}, {"measurement": "Optical layer thickness", "setting": "10^-5M inhibitor", "result": 1.685, "unit": "nm"}, {"measurement": "Optical layer thickness", "setting": "10^-6M inhibitor", "result": 0.847, "unit": "nm"}, {"measurement": "Optical layer thickness", "setting": "10^-7M inhibitor", "result": 0.630, "unit": "nm"}, {"measurement": "Optical layer thickness", "setting": "10^-8M inhibitor", "result": 0.578, "unit": "nm"}]}]}
